The list shows a part of the results, in another mix than the full data. Records with an inconclusive call do not appear. Some salts or complexes appear as unconnected parts, following the source record. Activity calls are given as the source filed them. Calls come from the whole dose curve; as a rule, active = well fitted inhibition curve with a large enough effect; inconclusive = small, poorly fitted or top-dose-only effect; inactive = no such curve, though single readings can be large or run the other way.
biological target: Glucagon-like peptide 1 receptor (Homo sapiens) (UniProt P43220); experiment: qHTS of GLP-1 Receptor Inverse Agonists (Inhibition Mode); details: HEK293 GLP-1R CRE-luciferase, luminescence, 24 h, GLP-1R form is constitutively active; series mostly up to 38.3 µM; activity change, negative = inhibition: at the top concentration; note: nearly all actives have a fitted effect of over 55% in size
% is set by controls: 0 for no effect and ±100 for the full control effect; potency is the fitted concentration of half-maximal effect.

Amino acid sequences for entries named in this document (tags omitted).
UniProt P43220, whole entry: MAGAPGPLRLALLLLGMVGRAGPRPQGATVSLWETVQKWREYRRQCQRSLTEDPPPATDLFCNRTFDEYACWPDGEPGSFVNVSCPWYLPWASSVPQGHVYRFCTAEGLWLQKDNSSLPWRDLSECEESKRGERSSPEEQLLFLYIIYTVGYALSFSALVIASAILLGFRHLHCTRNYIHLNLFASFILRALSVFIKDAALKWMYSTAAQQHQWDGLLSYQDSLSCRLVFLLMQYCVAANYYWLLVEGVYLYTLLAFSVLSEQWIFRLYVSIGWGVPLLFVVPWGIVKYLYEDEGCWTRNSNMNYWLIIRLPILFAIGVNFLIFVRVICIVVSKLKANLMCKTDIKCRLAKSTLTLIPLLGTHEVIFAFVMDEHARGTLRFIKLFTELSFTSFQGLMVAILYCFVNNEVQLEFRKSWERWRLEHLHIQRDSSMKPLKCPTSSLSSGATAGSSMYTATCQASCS

Row | SMILES | activity change, negative = inhibition | Potency
1 | O=C(NCC1(N2CCOCC2)CCCCC1)c1ccc([N+](=O)[O-])cc1 | inactive: -2.01% | 
2 | N#Cc1ccc(C(=O)NCC2(N3CCCCC3)CCCCC2)cc1 | inactive: -0.0273% | 
3 | O=C(NCC1(N2CCOCC2)CCCCC1)c1ccccc1[N+](=O)[O-] | inactive: 7.82% | 
4 | CCOC(=O)C(CC)C1=NC(C)(C)Cc2ccccc21.O=[N+]([O-])c1cc([N+](=O)[O-])c(O)c([N+](=O)[O-])c1 (stereo not given) | inactive: -13.9% | 
5 | O=C(NCC1(N2CCOCC2)CCCCC1)c1ccccc1 | inactive: -5.28% | 
6 | Cc1cc(N(CCCl)CCCl)ccc1C=O | inactive: -55.1% | 
7 | O=c1[nH]c2ccccc2n1C1CCN(C(c2ccccc2)c2nnnn2C2CCCC2)CC1 (stereo not given) | inactive: -22.8% | 
8 | c1ccc(CN2CCC(Nc3ccccc3)CC2)cc1 | inactive: -15.4% | 
9 | CN(C)C1(CNC(=O)c2cccc(C#N)c2)CCCCC1 | inactive: -13.2% | 
10 | CCCCn1nnnc1C(c1ccccc1)N1CCC(n2c(=O)[nH]c3ccccc32)CC1 (stereo not given) | inactive: -34.5% | 
11 | O=c1[nH]c2ccccc2n1C1CCN(C(c2ccnc3ccccc23)c2nnnn2C2CCCC2)CC1 (stereo not given) | inactive: -11.7% | 
12 | COc1ccc(C(=O)NCC2(N3CCOCC3)CCCCC2)cc1OC | inactive: 5.82% | 
13 | N/C(=N\O)c1c(N)no[n+]1[O-] | inactive: -4.44% | 
14 | CCOC(=O)N1CCC(Nc2ccc(C)cc2)CC1 | inactive: 9.06% | 
15 | COc1cccc(C(c2nnnn2C(C)(C)C)N2CCC(n3c(=O)[nH]c4ccccc43)CC2)c1OC (stereo not given) | inactive: -14.9% | 
16 | O=C(O)c1cccc(Nc2c([N+](=O)[O-])cc([N+](=O)[O-])cc2[N+](=O)[O-])c1 | inactive: 9.44% | 
17 | CCOc1ncccc1C(=O)NCC1(N2CCOCC2)CCCCC1 | inactive: 2.98% | 
18 | O=C(O)C1(Nc2ccccc2)CCN(Cc2ccccc2)CC1 | inactive: 2.53% | 
19 | NN(c1ccccc1)C1CCN(CCc2ccccc2)CC1 | inactive: -2.76% | 
20 | CCC(CO)(C(=O)OC1CN2CCC1CC2)c1ccccc1 (stereo not given) | inactive: -19.2% | 
21 | COc1cc(OC)cc(C(=O)NCC2(N3CCOCC3)CCCCC2)c1 | inactive: -0.292% | 
22 | COc1cc(C(=O)NCC2(N3CCOCC3)CCCCC2)cc(OC)c1OC | inactive: -1.42% | 
23 | CN1CCC(Nc2ccc(Cl)cc2)CC1 | inactive: -15% | 
24 | COc1cc(OC)cc(C(=O)NCC2(N3CCCCC3)CCCCC2)c1 | inactive: -27.2% | 

Row | SMILES | activity change, negative = inhibition | Potency
25 | O=c1[nH]c2ccccc2n1C1CCN(C(c2ccnc3ccccc23)c2nnnn2C2CCCCC2)CC1 (stereo not given) | inactive: 8.09% | 
26 | CCC(c1nnnn1C1CCCCC1)N1CCC(n2c(=O)[nH]c3ccccc32)CC1 (stereo not given) | inactive: 19.2% | 
27 | CC(=O)N(c1ccccc1)C1CCNCC1 | inactive: 2.2% | 
28 | Cc1ccc(NC2(C#N)CCN(Cc3ccccc3)CC2)cc1 | inactive: 6.31% | 
29 | Fc1ccccc1NC1CCN(Cc2ccccc2)CC1 | inactive: -13.4% | 
30 | Cc1ccc(Nc2c([N+](=O)[O-])cc([N+](=O)[O-])cc2[N+](=O)[O-])cc1 | inactive: 21.9% | 
31 | Cc1ccc(C(=O)NCC2(N3CCCCC3)CCCCC2)o1 | inactive: 3.54% | 
32 | CCN1CCC(Nc2cccc(F)c2)CC1 | inactive: 12.7% | 
33 | COc1ccc(C(c2nnnn2C2CCCCC2)N2CCC(n3c(=O)[nH]c4ccccc43)CC2)cc1 (stereo not given) | inactive: 8.24% | 
34 | CC(C)(C)n1nnnc1C(c1ccnc2ccccc12)N1CCC(n2c(=O)[nH]c3ccccc32)CC1 (stereo not given) | inactive: 4.18% | 
35 | Cc1ccccc1NC1(C#N)CCN(Cc2ccccc2)CC1 | inactive: 26.1% | 
36 | CN(C)c1ccc(C(=O)NCC2(N3CCCCC3)CCCCC2)cc1 | inactive: 13.3% | 
37 | Cn1c(=O)[nH]cc(N(CCCl)CCCl)c1=O | inactive: 8.82% | 
38 | O=C(NCC1(N2CCCCC2)CCCCC1)c1ccco1 | inactive: 11.5% | 
39 | CC(C)(C)c1ccc(C(=O)NCC2(N3CCOCC3)CCCCC2)cc1 |  | active: 8.91 µM
40 | Cc1ccccc1C(=O)NCC1(N(C)C)CCCCC1 | inactive: 14.3% | 
41 | CCOc1ccc(C)cc1CN(CCCl)CCCl | inactive: -0.942% | 
42 | O=C1CCN(Cc2ccccc2)CC1 | inactive: -19.4% | 
43 | CC(C)(C)n1nnnc1C(c1ccccc1)N1CCC(n2c(=O)[nH]c3ccccc32)CC1 (stereo not given) | inactive: 3.38% | 
44 | O=C(NCC1(N2CCOCC2)CCCCC1)c1ccc(Cl)cc1 | inactive: 1.3% | 
45 | COc1ccc(NC2CCN(CCc3ccccc3)CC2)c(OC)c1 | inactive: 0% | 
46 | CCOC(=O)N1CCC(Nc2ccc(F)cc2)CC1 | inactive: 17.2% | 
47 | O=P1(N(CCCl)CCCl)SCCCS1 | inactive: 5.99% | 
48 | CCCCOc1ccc(C(=O)NCC2(N3CCOCC3)CCCCC2)cc1 | inactive: -26% | 

Row | SMILES | activity change, negative = inhibition | Potency
49 | O=C(NCC1(N2CCCCC2)CCCCC1)c1ccc(F)cc1 | inactive: -1.4% | 
50 | COc1ccccc1C(=O)NCC1(N2CCOCC2)CCCCC1 | inactive: -18.5% | 
51 | O=c1[nH]c2ccccc2n1C1CCN(C(c2ccccc2)c2nnnn2C2CCCCC2)CC1 (stereo not given) | inactive: 12.2% | 
52 | CCOC(=O)N1CCC(Nc2cccc(C)c2)CC1 | inactive: -2.08% | 
53 | COc1cc(C(=O)NCC2(N(C)C)CCCCC2)ccc1OC(F)F | inactive: -28.9% | 
54 | O=C(NCC1(N2CCCCC2)CCCCC1)c1cccs1 | inactive: 10.3% | 
55 | CCCCn1nnnc1C(CC)N1CCC(n2c(=O)[nH]c3ccccc32)CC1 (stereo not given) | inactive: 5.02% | 
56 | O=C(NCC1(N2CCCCC2)CCCCC1)c1ccc(=O)[nH]c1 | inactive: 9.23% | 
57 | CC(C)(C)OC(=O)N1CCC(N(C(=O)c2ccccc2)c2ccc(F)cc2)CC1 | inactive: -14.9% | 
58 | COc1ccc(C(=O)NCC2(N3CCCCC3)CCCCC2)c(OC)c1OC | inactive: -33.4% | 
59 | CCC(c1nnnn1C1CCCC1)N1CCC(n2c(=O)[nH]c3ccccc32)CC1 (stereo not given) | inactive: 23.2% | 
60 | COc1ccc(C(=O)NCC2(N3CCCCC3)CCCCC2)cc1 | inactive: -2.41% | 
61 | Cc1cccc(NC2(C#N)CCN(Cc3ccccc3)CC2)c1 | inactive: -3.46% | 
62 | CSc1ccccc1C(=O)NCC1(N2CCCCC2)CCCCC1 | inactive: 17.6% | 
63 | Cc1cc(C)cc(N(C(=O)c2ccccc2)C2CCN(C(=O)OC(C)(C)C)CC2)c1 |  | active: 5.01 µM
64 | O=C(NCC1(N2CCCCC2)CCCCC1)c1ccc(Cl)nc1 | inactive: 10.1% | 
65 | O=c1[nH]c2ccccc2n1C1CCN(C(c2ccccc2OC(F)(F)F)c2nnnn2C2CCCCC2)CC1 (stereo not given) | inactive: 12% | 
66 | CCCCn1nnnc1C(c1ccc(OC)cc1)N1CCC(n2c(=O)[nH]c3ccccc32)CC1 (stereo not given) | inactive: -17.6% | 
67 | CCOC(=O)N1CCC(Nc2ccc(OC)cc2)CC1 | inactive: 18.4% | 
68 | O=C1C(O)=C([N+](=O)[O-])C(=O)C(O)=C1[N+](=O)[O-] | inactive: -9.41% | 
69 | N#CC1(Nc2ccccc2)CCN(Cc2ccccc2)CC1 | inactive: 1.34% | 
70 | O=C(NCC1(N2CCCCC2)CCCCC1)c1ccc(Cl)s1 | inactive: -13.1% | 
71 | O=c1[nH]c2ccccc2n1C1CCN(C(c2cc3ccccc3o2)c2nnnn2C2CCCCC2)CC1 (stereo not given) | inactive: 25.5% | 
72 | O=[N+]([O-])c1cc([N+](=O)[O-])c(OC2CCCCC2O)c([N+](=O)[O-])c1 (stereo not given) | inactive: -17.6% | 

Row | SMILES | activity change, negative = inhibition | Potency
73 | CN(C)c1cccc(C(=O)NCC2(N3CCCCC3)CCCCC2)c1 | inactive: 1.02% | 
74 | COc1ccc(CN(CCCl)CCCl)cc1Cl | inactive: 5% | 
75 | CCCCn1nnnc1C(c1ccnc2ccccc12)N1CCC(n2c(=O)[nH]c3ccccc32)CC1 (stereo not given) | inactive: -23.2% | 
76 | CCC(c1nnnn1C(C)(C)C)N1CCC(n2c(=O)[nH]c3ccccc32)CC1 (stereo not given) | inactive: 21.2% | 
77 | COc1cc(OC)c(C(=O)NCC2(N(C)C)CCCCC2)cc1OC | inactive: -0.13% | 
78 | CN1CCC(Nc2cccc(F)c2)CC1 | inactive: 0.75% | 
79 | COc1ccc2c(c1O)-c1c(O)c(OC)cc3c1[C@H](C2)[N+](C)(C)CC3.O=[N+]([O-])c1cc([N+](=O)[O-])c([O-])c([N+](=O)[O-])c1[O-] | inactive: 4.27% | 
80 | O=C(NCC1(N2CCCCC2)CCCCC1)c1cncc(Br)c1 | inactive: 3.61% | 
81 | O=C(OC1CN2CCC1CC2)c1ccc([N+](=O)[O-])cc1 (stereo not given) | inactive: -25.7% | 
82 | O=C(NCC1(N2CCOCC2)CCCCC1)c1ccccc1Br | inactive: -5.33% | 
83 | CCCOc1ccc(C(=O)NCC2(N(C)C)CCCCC2)cc1OC | inactive: -7.53% | 
84 | Cc1ccc(C(=O)NCC2(N(C)C)CCCCC2)o1 | inactive: 4.05% | 
85 | O=[N+]([O-])c1cc([N+](=O)[O-])c(Nc2ccc(Cl)cc2)c([N+](=O)[O-])c1 | inactive: -15.9% | 
86 | O=C(NCC1(N2CCCCC2)CCCCC1)c1ccc(OC(F)F)cc1 | inactive: -29.8% | 
87 | O=C(NCC1(N2CCCCC2)CCCCC1)c1cccc([N+](=O)[O-])c1 | inactive: -3.17% | 
88 | CCOc1ccc(C(=O)NCC2(N3CCOCC3)CCCCC2)cc1 | inactive: -22% | 
89 | N#CC1(Nc2ccccc2)CCN(CCc2ccccc2)CC1 | inactive: -8.09% | 
90 | O=C(NCC1(N2CCCCC2)CCCCC1)c1cccc(C(F)(F)F)c1 | inactive: 1.93% | 
91 | O=[N+]([O-])c1cc([N+](=O)[O-])c(NCC2CCS(=O)(=O)C2)c([N+](=O)[O-])c1 (stereo not given) | inactive: 103% | 
92 | CN1CCN(CCOC(=O)C(O)(c2ccccc2)c2ccccc2)CC1 | inactive: -17.1% | 
93 | COc1ccc(NC2CCN(C(=O)OC(C)(C)C)CC2)cc1 | inactive: 11.2% | 
94 | COc1cc(C(=O)NCC2(N3CCCCC3)CCCCC2)ccc1OC(F)F | inactive: -2.62% | 
95 | O=C(NCC1(N2CCOCC2)CCCCC1)c1cc(=O)[nH]c2ccccc12 | inactive: 14.4% | 

From PubChem BioAssay AID624417 (National Center for Advancing Translational Sciences (NCATS), 2012)
